This note sets out measurements from patent publication US20250009730A1 (priority 2021, published 2025).

Protein sequences, listed by entry. Tags and fused reporters are not part of them. Residues count along the entry.
UniProt Q13224, 27-1484: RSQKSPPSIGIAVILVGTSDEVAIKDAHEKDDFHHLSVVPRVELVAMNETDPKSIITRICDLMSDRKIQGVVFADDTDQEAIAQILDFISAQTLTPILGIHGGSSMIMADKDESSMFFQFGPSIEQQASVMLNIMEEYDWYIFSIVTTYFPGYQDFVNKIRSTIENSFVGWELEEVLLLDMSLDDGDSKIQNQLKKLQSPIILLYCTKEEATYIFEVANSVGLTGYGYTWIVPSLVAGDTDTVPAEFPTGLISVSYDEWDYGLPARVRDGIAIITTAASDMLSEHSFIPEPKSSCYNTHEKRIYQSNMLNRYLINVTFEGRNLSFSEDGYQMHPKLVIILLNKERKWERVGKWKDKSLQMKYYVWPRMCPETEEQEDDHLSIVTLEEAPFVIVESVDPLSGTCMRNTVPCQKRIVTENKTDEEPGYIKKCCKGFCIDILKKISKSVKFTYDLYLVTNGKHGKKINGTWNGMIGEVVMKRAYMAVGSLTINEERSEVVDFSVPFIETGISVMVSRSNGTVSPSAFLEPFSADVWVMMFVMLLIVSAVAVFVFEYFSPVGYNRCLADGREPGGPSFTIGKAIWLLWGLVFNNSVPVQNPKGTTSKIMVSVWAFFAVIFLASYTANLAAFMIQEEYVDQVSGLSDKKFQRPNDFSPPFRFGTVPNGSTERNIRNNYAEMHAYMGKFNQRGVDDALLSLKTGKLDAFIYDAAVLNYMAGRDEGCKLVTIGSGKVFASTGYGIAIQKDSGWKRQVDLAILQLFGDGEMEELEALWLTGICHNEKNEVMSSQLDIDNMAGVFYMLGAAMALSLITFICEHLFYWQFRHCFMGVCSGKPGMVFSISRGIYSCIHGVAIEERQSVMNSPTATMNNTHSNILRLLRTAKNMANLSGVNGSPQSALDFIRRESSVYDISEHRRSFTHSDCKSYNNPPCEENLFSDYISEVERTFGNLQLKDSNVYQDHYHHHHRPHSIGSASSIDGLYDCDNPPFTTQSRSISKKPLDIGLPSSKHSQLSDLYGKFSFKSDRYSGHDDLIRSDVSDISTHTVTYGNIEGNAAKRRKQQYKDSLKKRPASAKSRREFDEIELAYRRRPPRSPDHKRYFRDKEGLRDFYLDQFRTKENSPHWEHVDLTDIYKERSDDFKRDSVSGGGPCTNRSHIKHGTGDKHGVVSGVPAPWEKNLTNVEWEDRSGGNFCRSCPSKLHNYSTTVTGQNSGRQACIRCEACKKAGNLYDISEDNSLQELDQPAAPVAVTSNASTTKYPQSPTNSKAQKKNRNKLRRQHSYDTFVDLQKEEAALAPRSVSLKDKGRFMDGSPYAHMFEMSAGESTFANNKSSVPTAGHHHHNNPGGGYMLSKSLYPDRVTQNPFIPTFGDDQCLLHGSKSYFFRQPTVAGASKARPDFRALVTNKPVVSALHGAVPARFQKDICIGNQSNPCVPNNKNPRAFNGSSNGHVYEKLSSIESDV

Like-named read-outs stand apart in the source and are kept apart here.

This experiment concerns the target NR1/NR2B ionotropic receptors encoded by the human GRIN1/GRIN2B genes, expressed in HEK293 cells (Homo sapiens, UniProt Q05586+Q13224). In words: Syncropatch automated patch clamp on NR1/NR2B receptors in HEK293 cells, antagonist mode (co-applied with 2 μM glutamate and 50 μM glycine). It counts as cell-based. The procedure: The following patch clamp study investigates these effects on NR1/NR2B ionotropic receptors encoded by the human GRIN1/GRIN2B genes, expressed in HEK293 cells. Compounds were evaluated for functional effects on these ion channel receptors.
The assay was carried out using an HTS electrophysiology-based approach with the Syncropatch 384pe automated patch clamp system (Nanion), while using HEK293 cells that have been transfected with human GRIN1/GRIN2B genes to express NR1/NR2B ionotropic receptors
HEK293 cells were transfected with the appropriate ion channel or receptor cDNA(s) encoding NR1 and NR2B. Stable transfectants were selected using the G418 and Zeocin-resistance genes incorporated into the expression plasmid. Selection pressure was maintained with G418 and Zeocin in the culture medium. Cells were cultured in Dulbecco's Modified Eagle Medium/Nutrient Mixture F-12 (D-MEM/F-12) supplemented with 10% fetal bovine serum, 100 U/ml penicillin G sodium, 100 ug/mL streptomycin sulfate, 100 ug/mL Zeocin, 5 ug/mL blasticidin and 500 ug/mL G418.
Before testing, cells in culture dishes were washed twice with DPBS solution. Immediately before testing, the cells were washed in HB-PS containing 10 mM CaCl2 to improve sealing.
Compounds were evaluated in 8-point concentration-response format (4 replicate wells/concentration). The compound formulations were loaded in e.g. a 384-well compound plate and placed in the Syncropatch plate well.
The agonist positive control (L-glutamate) was applied at eight (8) concentrations (0.03-100 μM; n=4, where n=the number of replicates) together with 50 μM glycine. […]
Activation was calculated in two ways based on the following measurements: • 1. peak current amplitudes, and • 2. current amplitude 4-5 seconds after agonist addition.
Data acquisition was performed via the […] and data was analyzed using Microsoft Excel™ (Microsoft™ Corp., Redmond, WA). […]
where Base is the response in the absence of test article (vehicle treatment), Max is the maximum response at high concentrations, xhalf is the EC50, or IC50, the concentration of test compound producing either half-maximal activation or inhibition, and rate is the Hill coefficient. […] No assumptions about the fit parameters were made; the fit parameters were determined by algorithm. Raw reduced data was analyzed using Microsoft Excel Office 365 ProPlus (Microsoft™ Corp., Redmond, WA) and XLfit (Excel addon, Copyright© IDBS 2016). […]
The following patch clamp study investigates these effects on NR1/NR2B ionotropic receptors encoded by the human GRIN1/GRIN2B genes, expressed in HEK293 cells. Compounds were evaluated for functional effects on these ion channel receptors. […]

Ifenprodil tartrate: the IC50 was 1040 nM (peak current amplitude (PCA)) and 310 nM (steady state current amplitude (SSC) table, 4th-6th second after agonist, read-out: NR1/NR2B PCA antagonist IC50). In addition, the “NR1/NR2B PCA antagonist HillSlope” value was found to be 0.89 (peak current amplitude (PCA)) and 0.79 (steady state current amplitude (SSC) table).
